From publication PMC6149683, “In Vitro Investigation of the Interaction of Tolbutamide and Losartan with Human Serum Albumin in Hyperglycemia States” (Molecules : A Journal of Synthetic Chemistry and Natural …, 2017)
Read-outs that look alike come from different tables or passages of the source.

What was measured:
[1] = test system: glycated human serum albumin (gHSAFRC); details: for Stern-Volmer constant KSV / Association constant Ka, Klotz Method / Association constant Ka, Scatchard Method / Hill's coefficient nH, Hill Method / fractional accessible protein fluorescence fa / mean number of drug molecules bound with one molecule of albumin n, Klotz Method / mean number of drug molecules bound with one molecule of albumin n, Scatchard Method: ± RSD; for decrease of gHSAFRC fluorescence (quenching): highest molar ratio drug:albumin (TB 20:1, LOS 10:1), albumin 5 × 10^−6 mol∙L^−1; for quenching of gHSAFRC fluorescence in the ternary system lower than in the binary system by: other drug at constant concentration (LOS for TB, TB for LOS)
[2] = test system: non-glycated human serum albumin (HSA); details: for quenching of HSA fluorescence: binary system, highest molar ratio drug:albumin (TB 20:1, LOS 10:1), albumin 5 × 10^−6 mol∙L^−1; for quenching of HSA fluorescence in the ternary system lower than in the binary system by: other drug at constant concentration (LOS for TB, TB for LOS)
[3] = binary system drug-gHSAFRC, λex = 275 nm
[4] = binary system drug-gHSAFRC, λex = 295 nm
[5] = ternary system with gHSAFRC: other drug constant at 5 × 10^−6 mol∙L^−1 (LOS(const) for TB, TB(const) for LOS), λex = 275 nm
[6] = ternary system with gHSAFRC: other drug constant at 5 × 10^−6 mol∙L^−1 (LOS(const) for TB, TB(const) for LOS), λex = 295 nm
[7] = ternary system with gHSAFRC: other drug constant at 5 × 10^−6 mol∙L^−1, 1:1 to albumin (LOS(const) for TB, TB(const) for LOS), λex = 275 nm
[8] = binary system drug-HSA, λex = 275 nm, ± RSD
[9] = binary system drug-HSA, λex = 295 nm, ± RSD
[10] = ternary system with HSA: other drug constant at 5 × 10^−6 mol∙L^−1 (LOS(const) for TB, TB(const) for LOS), λex = 275 nm, ± RSD
[11] = ternary system with HSA: other drug constant at 5 × 10^−6 mol∙L^−1 (LOS(const) for TB, TB(const) for LOS), λex = 295 nm, ± RSD
[12] = ternary system with HSA: other drug constant at 5 × 10^−6 mol∙L^−1, 1:1 to albumin (LOS(const) for TB, TB(const) for LOS), λex = 275 nm, ± RSD
[13] = ternary system with HSA: other drug constant at 5 × 10^−6 mol∙L^−1, 1:1 to albumin (LOS(const) for TB, TB(const) for LOS), λex = 295 nm, ± RSD

SMILES: CCCCc1nc(Cl)c(CO)n1Cc1ccc(-c2ccccc2-c2nnn[nH]2)cc1 [LOS, (2-butyl-4-chloro-1-{[2′-(1H-tetrazol-5-yl)-4-biphenylyl]methyl}-1H-imidazol-5-yl)methanol]
- Stern-Volmer constant KSV ([1]; binary system drug-gHSAFRC, λex = 275 nm, Stern-Volmer modified by Lehrer, 37 °C): 6.92 ± 0.03 × 10^4 mol^−1∙L
- biomolecular quenching rate constant kq ([1]; binary system drug-gHSAFRC, λex = 275 nm, kq=KSV/τ0, τ0 = 6.2 × 10^−9 s): 11.16 ± 0.05 × 10^12 mol^−1∙L∙s^−1
- Association constant Ka, Klotz Method [1, 3]: 9.63 ± 0.08 × 10^4 mol^−1∙L
- Association constant Ka, Scatchard Method [1, 3]: 9.21 ± 0.40 × 10^4 mol^−1∙L
- Hill's coefficient nH, Hill Method [1, 3]: 0.97 ± 0.02
- fractional accessible protein fluorescence fa [1, 3]: 0.42 ± 0.01
- mean number of drug molecules bound with one molecule of albumin n, Klotz Method [1, 3]: 0.96 ± 0.02
- Stern-Volmer constant KSV ([1]; binary system drug-gHSAFRC, λex = 295 nm, Stern-Volmer modified by Lehrer, 37 °C): 4.15 ± 0.02 × 10^4 mol^−1∙L
- biomolecular quenching rate constant kq ([1]; binary system drug-gHSAFRC, λex = 295 nm, kq=KSV/τ0, τ0 = 6.2 × 10^−9 s): 6.69 ± 0.03 × 10^12 mol^−1∙L∙s^−1
- Association constant Ka, Klotz Method [1, 4]: 5.34 ± 0.01 × 10^4 mol^−1∙L
- Association constant Ka, Scatchard Method [1, 4]: 5.31 ± 0.11 × 10^4 mol^−1∙L
- Hill's coefficient nH, Hill Method [1, 4]: 0.97 ± 0.01
- fractional accessible protein fluorescence fa [1, 4]: 0.74 ± 0.01
- mean number of drug molecules bound with one molecule of albumin n, Klotz Method [1, 4]: 0.97 ± 0.01
- mean number of drug molecules bound with one molecule of albumin n, Scatchard Method [1, 4]: 0.97 ± 0.03
- quenching of gHSAFRC lower than of HSA by ([1]; binary system, λex = 275 nm): 3%
- decrease of gHSAFRC fluorescence (quenching) ([1]; binary system, λex = 275 nm): 33%
- quenching of gHSAFRC greater than of HSA by ([1]; binary system, λex = 295 nm): 3%
- decrease of gHSAFRC fluorescence (quenching) ([1]; binary system, λex = 295 nm): 50%
- quenching of gHSAFRC fluorescence in the ternary system lower than in the binary system by ([1]; λex = 275 nm): 3%
- quenching of gHSAFRC fluorescence in the ternary system lower than in the binary system by ([1]; λex = 295 nm): 4%
- biomolecular quenching rate constant kq ([1]; ternary system with gHSAFRC: other drug constant at 5 × 10^−6 mol∙L^−1 (LOS(const) for TB, TB(const) for LOS), λex = 275 nm, kq=KSV/τ0): 12.44 ± 0.14 × 10^12 mol^−1∙L∙s^−1
- Association constant Ka, Klotz Method [1, 5]: 11.17 ± 0.27 × 10^4 mol^−1∙L
- Hill's coefficient nH, Hill Method [1, 5]: 1.12 ± 0.06
- fractional accessible protein fluorescence fa [1, 5]: 0.37 ± 0.01
- mean number of drug molecules bound with one molecule of albumin n, Klotz Method [1, 5]: 1.01 ± 0.02
- mean number of drug molecules bound with one molecule of albumin n, Scatchard Method [1, 5]: 1.03 ± 0.12
- biomolecular quenching rate constant kq ([1]; ternary system with gHSAFRC: other drug constant at 5 × 10^−6 mol∙L^−1 (LOS(const) for TB, TB(const) for LOS), λex = 295 nm, kq=KSV/τ0): 5.42 ± 0.03 × 10^12 mol^−1∙L∙s^−1
- Association constant Ka, Klotz Method [1, 6]: 4.24 ± 0.02 × 10^4 mol^−1∙L
- fractional accessible protein fluorescence fa [1, 6]: 0.73 ± 0.01
- Association constant Ka, Scatchard Method [1, 7]: 10.37 ± 0.70 × 10^4 mol^−1∙L
- Stern-Volmer constant KSV [1, 7]: 7.71 ± 0.09 × 10^4 mol^−1∙L
- Association constant Ka, Scatchard Method ([1]; ternary system with gHSAFRC: other drug constant at 5 × 10^−6 mol∙L^−1, 1:1 to albumin (LOS(const) for TB, TB(const) for LOS), λex = 295 nm): 4.26 ± 0.07 × 10^4 mol^−1∙L
- Stern-Volmer constant KSV ([2]; binary system drug-HSA, λex = 275 nm, Stern-Volmer modified by Lehrer, 37 °C, ± RSD): 6.24 ± 0.02 × 10^4 mol^−1∙L
- biomolecular quenching rate constant kq ([2]; binary system drug-HSA, λex = 275 nm, kq=KSV/τ0, τ0 = 6.2 × 10^−9 s): 10.06 ± 0.03 × 10^12 mol^−1∙L∙s^−1
- Association constant Ka, Klotz Method [2, 8]: 8.64 ± 0.11 × 10^4 mol^−1∙L
- Association constant Ka, Scatchard Method [2, 8]: 8.13 ± 0.41 × 10^4 mol^−1∙L
- Hill's coefficient nH, Hill Method [2, 8]: 1.03 ± 0.03
- fractional accessible protein fluorescence fa [2, 8]: 0.47 ± 0.01
- mean number of drug molecules bound with one molecule of albumin n, Klotz Method [2, 8]: 0.98 ± 0.02
- Stern-Volmer constant KSV ([2]; binary system drug-HSA, λex = 295 nm, Stern-Volmer modified by Lehrer, 37 °C, ± RSD): 3.71 ± 0.01 × 10^4 mol^−1∙L
- biomolecular quenching rate constant kq ([2]; binary system drug-HSA, λex = 295 nm, kq=KSV/τ0, τ0 = 6.2 × 10^−9 s): 5.98 ± 0.02 × 10^12 mol^−1∙L∙s^−1
- Association constant Ka, Klotz Method [2, 9]: 4.69 ± 0.01 × 10^4 mol^−1∙L
- Association constant Ka, Scatchard Method [2, 9]: 4.62 ± 0.07 × 10^4 mol^−1∙L
- Hill's coefficient nH, Hill Method [2, 9]: 1.03 ± 0.01
- fractional accessible protein fluorescence fa [2, 9]: 0.72 ± 0.01
- mean number of drug molecules bound with one molecule of albumin n, Klotz Method [2, 9]: 1.02 ± 0.01
- mean number of drug molecules bound with one molecule of albumin n, Scatchard Method [2, 9]: 1.02 ± 0.02
- quenching of HSA fluorescence ([2]; λex = 275 nm): 36%
- quenching of HSA fluorescence ([2]; λex = 295 nm): 47%
- quenching of HSA fluorescence in the ternary system lower than in the binary system by ([2]; λex = 275 nm): 7%
- quenching of HSA fluorescence in the ternary system lower than in the binary system by ([2]; λex = 295 nm): 5%
- biomolecular quenching rate constant kq ([2]; ternary system with HSA: other drug constant at 5 × 10^−6 mol∙L^−1 (LOS(const) for TB, TB(const) for LOS), λex = 275 nm, kq=KSV/τ0): 2.79 ± 0.14 × 10^12 mol^−1∙L∙s^−1
- Association constant Ka, Klotz Method [2, 10]: 1.85 ± 0.09 × 10^4 mol^−1∙L
- Hill's coefficient nH, Hill Method [2, 10]: 0.80 ± 0.03
- fractional accessible protein fluorescence fa [2, 10]: 0.64 ± 0.05
- mean number of drug molecules bound with one molecule of albumin n, Klotz Method [2, 10]: 0.55 ± 0.04
- biomolecular quenching rate constant kq ([2]; ternary system with HSA: other drug constant at 5 × 10^−6 mol∙L^−1 (LOS(const) for TB, TB(const) for LOS), λex = 295 nm, kq=KSV/τ0): 3.76 ± 0.05 × 10^12 mol^−1∙L∙s^−1
- Association constant Ka, Klotz Method [2, 11]: 2.66 ± 0.03 × 10^4 mol^−1∙L
- Hill's coefficient nH, Hill Method [2, 11]: 0.90 ± 0.02
- fractional accessible protein fluorescence fa [2, 11]: 0.79 ± 0.02
- mean number of drug molecules bound with one molecule of albumin n, Klotz Method [2, 11]: 0.81 ± 0.02
- Association constant Ka, Scatchard Method [2, 12]: 2.10 ± 0.18 × 10^4 mol^−1∙L
- Stern-Volmer constant KSV [2, 12]: 1.73 ± 0.09 × 10^4 mol^−1∙L
- Association constant Ka, Scatchard Method [2, 13]: 2.64 ± 0.09 × 10^4 mol^−1∙L
- Stern-Volmer constant KSV [2, 13]: 2.33 ± 0.03 × 10^4 mol^−1∙L
